#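 Test compounds were applied to cells in 96-well plates for 48 hours at 5 doses. GI50 is the concentration that inhibits growth by half. At the TGI there is no net growth.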
# Key:
# Experiment in all cases: DTP human tumour cell line panel, 48 h
# [1] = test system: KM20L2 colon
# [2] = test system: NCI-H322M lung
# [3] = test system: MOLT-4 leukemia
# [4] = test system: NCI-H23 lung
# [5] = test system: SR leukemia
# [6] = test system: XF 498 CNS
# [7] = test system: NCI/ADR-RES ovarian
# [8] = test system: EKVX NSCLC
# [9] = test system: SK-MEL-2 melanoma
# [10] = test system: SF-539 CNS
# [11] = test system: MDA-MB-231 breast
# [12] = test system: CCRF-CEM leukemia
# [13] = test system: OVCAR-4 ovarian
# [14] = test system: SW-620 colon
# [15] = test system: NCI-H460 lung
# [16] = test system: A498 renal
# [17] = test system: SNB-75 CNS
# [18] = test system: RPMI-8226 leukemia
# [19] = test system: SK-MEL-5 melanoma
# [20] = test system: M19-MEL melanoma
# [21] = test system: SK-MEL-28 melanoma
# [22] = test system: UO-31 renal
# [23] = test system: LOX IMVI melanoma
# [24] = test system: DLD-1 colon
# [25] = test system: IGROV1 ovarian
# [26] = test system: UACC-62 melanoma
# [27] = test system: HOP-92 NSCLC
# [28] = test system: NCI-H522 lung
# [29] = test system: HT29 colon
# [30] = test system: K-562 leukemia
# [31] = test system: SNB-19 CNS
# [32] = test system: NCI-H226 lung
# [33] = test system: T-47D breast
# [34] = test system: UACC-257 melanoma
# [35] = test system: BT-549 breast
# [36] = test system: HOP-18 NSCLC
# [37] = test system: A549 NSCLC
# [38] = test system: OVCAR-8 ovarian
# [39] = test system: SF-295 CNS
# [40] = test system: SF-268 CNS
# [41] = test system: SNB-78 CNS
# [42] = test system: OVCAR-5 ovarian
# [43] = test system: DU-145 prostate
# [44] = test system: HS 578T breast
# [45] = test system: MDA-N
# [46] = test system: LXFL 529 NSCLC
# [47] = test system: TK-10 renal
# [48] = test system: RXF 393 renal
# [49] = test system: MALME-3M melanoma
# [50] = test system: HOP-62 NSCLC
# [51] = test system: HCT-116 colon
# [52] = test system: MDA-MB-435
# [53] = test system: SK-OV-3 ovarian
# [54] = test system: ACHN renal
# [55] = test system: CAKI-1 renal
# [56] = test system: HCT-15 colon
# [57] = test system: SN12C renal
# [58] = test system: MCF7 breast
# [59] = test system: U251 CNS
# [60] = test system: KM12 colon
# [61] = test system: M14 melanoma
# [62] = test system: HL-60(TB) leukemia
# [63] = test system: OVCAR-3 ovarian
# [64] = test system: HCC-2998 colon
# [65] = test system: 786-0 renal
# [66] = test system: PC-3 prostate
# [67] = test system: COLO 205 colon
smiles,measurement,setting,value
O=C(O)CS[As]1SCCS1,GI50,[1],> 100 µM
same,TGI,[1],> 100 µM
same,GI50,[2],3.28 µM
same,TGI,[2],> 100 µM
same,GI50,[3],51 µM
same,TGI,[3],> 100 µM
same,GI50,[4],72.7 µM
same,TGI,[4],> 100 µM
same,GI50,[5],19.9 µM
same,TGI,[5],56.3 µM
same,GI50,[6],> 100 µM
same,TGI,[6],> 100 µM
same,GI50,[7],29.7 µM
same,TGI,[7],93.2 µM
same,GI50,[8],50.7 µM
same,TGI,[8],> 100 µM
same,GI50,[9],43.7 µM
same,TGI,[9],85.5 µM
same,GI50,[10],34.8 µM
same,TGI,[10],69.9 µM
same,GI50,[11],95.7 µM
same,TGI,[11],> 100 µM
same,GI50,[12],66.6 µM
same,TGI,[12],> 100 µM
same,GI50,[13],> 100 µM
same,TGI,[13],> 100 µM
same,GI50,[14],97.3 µM
same,TGI,[14],> 100 µM
same,GI50,[15],57.4 µM
same,TGI,[15],> 100 µM
same,GI50,[16],92.6 µM
same,TGI,[16],> 100 µM
same,GI50,[17],22.2 µM
same,TGI,[17],> 100 µM
same,GI50,[18],57 µM
same,TGI,[18],> 100 µM
same,GI50,[19],38.9 µM
same,TGI,[19],> 100 µM
same,GI50,[20],44.4 µM
same,TGI,[20],> 100 µM
same,GI50,[21],88.2 µM
same,TGI,[21],> 100 µM
same,GI50,[22],> 100 µM
same,TGI,[22],> 100 µM
same,GI50,[23],12.5 µM
same,TGI,[23],> 100 µM
same,GI50,[24],> 100 µM
same,TGI,[24],> 100 µM
same,GI50,[25],59.1 µM
same,TGI,[25],> 100 µM
same,GI50,[26],73.3 µM
same,TGI,[26],> 100 µM
same,GI50,[27],> 100 µM
same,TGI,[27],> 100 µM
same,GI50,[28],50 µM
same,TGI,[28],> 100 µM
same,GI50,[29],59.4 µM
same,TGI,[29],> 100 µM
same,GI50,[30],61.4 µM
same,TGI,[30],> 100 µM
same,GI50,[31],84.8 µM
same,TGI,[31],> 100 µM
same,GI50,[32],57.4 µM
same,TGI,[32],> 100 µM
same,GI50,[33],> 100 µM
same,TGI,[33],> 100 µM
same,GI50,[34],94.6 µM
same,TGI,[34],> 100 µM
same,GI50,[35],58.6 µM
same,TGI,[35],> 100 µM
same,GI50,[36],> 100 µM
same,TGI,[36],> 100 µM
same,GI50,[37],55.9 µM
same,TGI,[37],> 100 µM
same,GI50,[38],61.3 µM
same,TGI,[38],> 100 µM
same,GI50,[39],56.3 µM
same,TGI,[39],> 100 µM
same,GI50,[40],44 µM
same,TGI,[40],> 100 µM
same,GI50,[41],> 100 µM
same,TGI,[41],> 100 µM
same,GI50,[42],58.5 µM
same,TGI,[42],> 100 µM
same,GI50,[43],73.3 µM
same,TGI,[43],> 100 µM
same,GI50,[44],28 µM
same,TGI,[44],> 100 µM
same,GI50,[45],28.4 µM
same,TGI,[45],> 100 µM
same,GI50,[46],> 100 µM
same,TGI,[46],> 100 µM
same,GI50,[47],> 100 µM
same,TGI,[47],> 100 µM
same,GI50,[48],81.5 µM
same,TGI,[48],> 100 µM
same,GI50,[49],56 µM
same,TGI,[49],> 100 µM
same,GI50,[50],51.3 µM
same,TGI,[50],94.3 µM
same,GI50,[51],16 µM
same,TGI,[51],> 100 µM
same,GI50,[52],22.4 µM
same,TGI,[52],59 µM
same,GI50,[53],57.4 µM
same,TGI,[53],> 100 µM
same,GI50,[54],87.8 µM
same,TGI,[54],> 100 µM
same,GI50,[55],23.2 µM
same,TGI,[55],> 100 µM
same,GI50,[56],39.9 µM
same,TGI,[56],> 100 µM
same,GI50,[57],81.6 µM
same,TGI,[57],> 100 µM
same,GI50,[58],44.8 µM
same,TGI,[58],> 100 µM
same,GI50,[59],59.7 µM
same,TGI,[59],> 100 µM
same,GI50,[60],34.2 µM
same,TGI,[60],82.1 µM
same,GI50,[61],67.3 µM
same,TGI,[61],> 100 µM
same,GI50,[62],63.6 µM
same,TGI,[62],> 100 µM
same,GI50,[63],52 µM
same,TGI,[63],> 100 µM
same,GI50,[64],67.5 µM
same,TGI,[64],> 100 µM
same,GI50,[65],17.3 µM
same,TGI,[65],> 100 µM
same,GI50,[66],34 µM
same,TGI,[66],> 100 µM
same,GI50,[67],> 100 µM
same,TGI,[67],> 100 µM
